Sequences of proteins named here, by UniProt entry; tags and fusion partners are left off. A change or cut given only in a name is not applied to a line headed by its entry.
UniProt P41144: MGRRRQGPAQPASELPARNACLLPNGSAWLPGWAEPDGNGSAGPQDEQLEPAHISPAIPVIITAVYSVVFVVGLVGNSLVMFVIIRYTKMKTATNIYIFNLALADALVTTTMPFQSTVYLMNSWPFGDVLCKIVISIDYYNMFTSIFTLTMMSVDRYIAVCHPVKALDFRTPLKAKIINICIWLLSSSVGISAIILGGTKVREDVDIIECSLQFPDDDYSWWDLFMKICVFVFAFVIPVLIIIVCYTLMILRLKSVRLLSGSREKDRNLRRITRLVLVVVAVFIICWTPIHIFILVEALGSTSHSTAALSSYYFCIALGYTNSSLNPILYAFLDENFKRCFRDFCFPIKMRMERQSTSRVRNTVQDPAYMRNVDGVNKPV
UniProt P97266, whole entry: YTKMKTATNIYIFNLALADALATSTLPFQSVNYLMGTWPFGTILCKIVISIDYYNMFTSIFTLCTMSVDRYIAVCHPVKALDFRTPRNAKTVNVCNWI

In ChEMBL document CHEMBL1134717 (Bioorg Med Chem Lett, 2001):

Assays:
[1] = molecular target: Kappa-type opioid receptor (Cavia porcellus, UniProt P41144); assay: Binding affinity towards guinea pig Opioid receptor kappa 1 using radioligand [3H]U69,593
Mu-type opioid receptor = Mu-type opioid receptor (Cavia porcellus, UniProt P97266); assay: Binding affinity towards guinea pig Opioid receptor mu 1 using radioligand [3H]DAMGO

`CC1C2Cc3ccc(C(N)=O)cc3C1(C)CCN2CC1CC1` (configuration not stated) gave a Ki [1] of 0.53 nM and a Ki (Mu-type opioid receptor) of 0.41 nM.
